Only a part is listed here, and it is no random draw. Results filed as inconclusive are left out. Active and inactive are the calls of the source. Calls come from the whole dose curve; as a rule, active = well fitted cell-killing curve with a large enough effect; inconclusive = small, poorly fitted or top-dose-only effect, or effect the other way; inactive = flat fitted curve, though single readings scatter.
% is set by controls: 0 for no effect and ±100 for the full control effect.

The nature of this test: Cell viability qHTS assay in S16 Pmp22-F2sN cells. Note: nearly all actives have a fitted effect of over 65% in size. The settings on record: S16 Pmp22-F2sN Schwann cells (luciferase reporters placed in the Pmp22 gene) viability, CellTiter-Glo, 24 h; at 57.5 µM (top of the series). The text has this:
Assay Provider: Jim Inglese Ph.D. National Center for Advancing Translational Science, National Institutes of Health, Rockville, MD CMT is a heterogeneous group of neurological disorders that affect approximately 1 in 2,500 people. In particular, the most common form of CMT, CMT1A is genetically linked to the duplication of the PMP22 gene which leads to Schwann cell overexpression, thus manifesting itself as a typical case of dose-sensitive diseases. To identify small molecule compounds that can mediate the expression of PMP22 we developed a phenotypic assay screening strategy by utilizing genome editing techniques to construct Schwann cell lines containing novel reporter technology to monitor the transcriptional or translational regulation of PMP22. For high sensitivity we use a bioluminescent reporter system embedded in the 3' UTR of the PMP22 gene (S16(c9) Pmp22-F2sN) to identify compounds that inhibit gene expression. […] We can further discriminate the effect of all transcriptionally active molecules on PMP22 translation or stability with an assay that incorporates a short NLuc peptide (HiBiT) at the C-terminus of expressed PMP22 (S16(f8) PMP22-HiBiT) allowing alpha complementation and luminescence detection of membrane-associated PMP22 protein. These assays were screened against the NCATS Sytravon Library Collection. Miniaturization of these assays to 1536-well plate format for quantitative high throughput screening (qHTS) yielded rich data sets immediately from the qHTS assay (S16(c9) Pmp22-F2sN), when compared with data from a cell viability assay (Cell TiterGlo) to identify compounds that decreased the output signals through cellular toxicity to streamline the selection process of actives for subsequent characterization using the HiBiT assay (S16(f8) PMP22-HiBiT).
Cell viability assay in S16 Pmp22-F2sN cells PROTOCOL TABLE (format as described by Inglese J, Shamu CE and Guy RK. 2007) SEQUENCE No. (e.g., 1, 2, 3, etc.); […] (e.g., Cells, Incubation, Reagent, etc.); VALUE and DESCRIPTION. 1. Cells. Add 500-1,000 cells in 4 uL in growth media (DMEM High Glucose, No Phenol Red media + 10% heat-inactivated FBS + 1% Pen/Strep supplemented media) per well into Greiner 1536-well white/solid bottom high base, TC-treated plates. 2. Compounds. Library compounds and controls added at 23nL per well, transferred by Pin Tool. 3. Incubation. Incubate plates at 37C, 5% CO2, 95% RH for 24 h. 4. Reagent. Add 3uL CellTiter-Glo per well of Greiner 1536-well plates. 5. Incubation. Incubate plates at room temperature for 15 min., protect from light. 6. Detector. FLuc luminescence measured using CCD-based camera (Viewlux). NOTES (numbers refer to Sequence numbers above; values are from representative experiments) 6. Luminescence Read: Clear filter; Exposure = 1 sec, Gain = High, Speed = Slow, Binning = 2X REFERENCES: 1. Inglese J, Shamu CE and Guy RK, Reporting data from high throughput screening of small molecule libraries, Nature Chemical Biology, 2007, 3(8): 438-441. doi.org/10.1038/nchembio0807-438 2. Yasgar A, Shinn P, Jadhav A, Auld DS, Michael S, Zheng W, Austin CP, Inglese J and Simeonov A, Compound Management for Quantitative High-Throughput Screening. J. Assoc. Lab. Auto., 2008, 13: 79-89. doi: 10.1016/j.jala.2007.12.004
In general terms: Quantitative high-throughput screening tests each substance at several concentrations.
For the compound `O=C(NCC1(N2CCOCC2)CCCCC1)c1ccccc1[N+](=O)[O-]`, the activity change, negative = cytotoxicity is inactive: 2.68%.
The same measure for `O=C(NCC1(N2CCOCC2)CCCCC1)c1ccc([N+](=O)[O-])cc1`: inactive: 19.4%; for `O=C(NCC1(N2CCOCC2)CCCCC1)c1ccccc1`: inactive: 20%; for `COc1cc(C(=O)NCC2(N3CCOCC3)CCCCC2)cc(OC)c1OC`: inactive: 23.6%.
The same measure for `CN(C)C1(CNC(=O)c2ccc(C(C)(C)C)cc2)CCCCC1`: inactive: -0.632%.
The same measure for `Cc1ccccc1C(=O)NCC1(N(C)C)CCCCC1`: inactive: 0.0976%; for `CC(C)(C)c1ccc(C(=O)NCC2(N3CCOCC3)CCCCC2)cc1`: inactive: -0.424%; for `COc1ccccc1C(=O)NCC1(N2CCOCC2)CCCCC1`: inactive: 27.6%.
In the case of `O=C(NCC1(N2CCOCC2)CCCCC1)c1ccc(Cl)cc1`, the activity change, negative = cytotoxicity was inactive: 13.8%.
On to `CCCCOc1ccccc1C(=O)NCC1(N2CCOCC2)CCCCC1`, for which the activity change, negative = cytotoxicity was inactive: -5.61%.
The same measure for `O=C(NCC1(N2CCOCC2)CCCCC1)c1ccccc1Br`: inactive: 30%; for `CCOc1ccc(C(=O)NCC2(N3CCOCC3)CCCCC2)cc1`: inactive: 27.1%.

The values above are taken from PubChem BioAssay AID1508642 (National Center for Advancing Translational Sciences (NCATS), 2021).
